{"source": "ChEMBL document CHEMBL3588754", "about": "“Parallel Synthesis of Hexahydrodiimidazodiazepines Heterocyclic Peptidomimetics and Their in Vitro and in Vivo Activities at μ (MOR), δ (DOR), and κ (KOR) Opioid Receptors” (J Med Chem, 2015)", "tested_on": "Mus musculus", "experiment": "Antinociceptive effect in icv dosed C57BL/6 mouse assessed as tail withdrawal latency measured up to 2 hrs by 55 degC Warm water tail withdrawal assay", "format": "functional", "data": [{"smiles": "CN(C(=O)Cc1ccc(Cl)c(Cl)c1)C1CCCCC1N1CCCC1", "note": "(stereo unspecified)", "values": [{"measurement": "Activity", "result": "Dose-dependent effect"}]}]}
